{"source": "paper PMC10349072", "about": "“Distinct evolution of type I glutamine synthetase in Plasmodium and its species-specific requirement” (Nature Communications, 2023)", "molecular_target": "T1, Plasmodium falciparum glutamine synthetase (rPfGS) (Plasmodium falciparum, UniProt C0H551)", "T1 construct": "gene PF3D7_0922600", "T1 sequence (C0H551 1-543)": "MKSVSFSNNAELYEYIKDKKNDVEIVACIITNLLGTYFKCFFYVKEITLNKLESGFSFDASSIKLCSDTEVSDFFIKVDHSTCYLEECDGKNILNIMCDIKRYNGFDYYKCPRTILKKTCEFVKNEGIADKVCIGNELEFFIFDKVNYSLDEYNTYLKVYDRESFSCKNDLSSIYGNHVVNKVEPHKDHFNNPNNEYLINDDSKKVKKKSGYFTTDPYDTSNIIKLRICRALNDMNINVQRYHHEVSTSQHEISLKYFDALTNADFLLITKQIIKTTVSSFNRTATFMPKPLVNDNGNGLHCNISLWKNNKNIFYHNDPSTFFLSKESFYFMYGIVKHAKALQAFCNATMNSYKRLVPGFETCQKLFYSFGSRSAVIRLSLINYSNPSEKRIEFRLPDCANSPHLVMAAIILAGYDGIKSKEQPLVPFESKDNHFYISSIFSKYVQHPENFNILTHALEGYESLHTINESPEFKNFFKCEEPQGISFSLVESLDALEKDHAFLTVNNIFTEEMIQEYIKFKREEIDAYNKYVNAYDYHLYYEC", "experiment": "biochemical", "data": [{"smiles": "CS(=N)(=O)CC[C@H](N)C(=O)O", "note": "(stereo partly drawn) [MSO, L-Methionine sulfoximine]", "values": [{"measurement": "Ki", "result": "5.64 ± 0.39", "unit": "µM"}]}]}
